Measured values from ChEMBL document CHEMBL1148804, “Enzyme adaptation to inhibitor binding: a cryptic binding site in phenylethanolamine N-methyltransferase” (J Med Chem, 2007).

Species: Homo sapiens
Experiment: Ratio of Ki for wild type human PNMT to Ki for human PNMT K57 mutant

## Ic1ccc2c(c1)CNCC2
  Ratio Ki: 0.05
